Source: ChEMBL document CHEMBL3227947, “Quantitative structure-activity relationship of 5-(X-benzyl)-2,4-diaminopyrimidines inhibiting bovine liver dihydrofolate reductase” (J Med Chem, 1979)

Target: T1, Dihydrofolate reductase (Bos taurus) (UniProt P00376)
T1 sequence (whole entry): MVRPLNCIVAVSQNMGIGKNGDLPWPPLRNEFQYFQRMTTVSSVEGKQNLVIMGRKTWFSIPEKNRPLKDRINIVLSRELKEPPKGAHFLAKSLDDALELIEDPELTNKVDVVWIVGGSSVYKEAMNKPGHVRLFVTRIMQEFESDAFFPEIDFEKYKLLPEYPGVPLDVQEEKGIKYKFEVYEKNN

log(1/I50) | SMILES
5.18 | Nc1ncc(Cc2ccc(F)cc2)c(N)n1
5.02 | Nc1ncc(Cc2ccc([N+](=O)[O-])cc2)c(N)n1
5.54 | Nc1ncc(Cc2cccc(Br)c2)c(N)n1
4.76 | CN(C)c1ccc(Cc2cnc(N)nc2N)cc1
5.17 | Nc1ncc(Cc2ccc(Br)cc2)c(N)n1
4.92 | COc1ccc(Cc2cnc(N)nc2N)cc1
5.47 | Nc1ncc(Cc2cccc(Cl)c2)c(N)n1
